From ChEMBL document CHEMBL4420080, “Inhibitors of sox18 protein activity for treating angiogenesis- and/or lymphangiogenesis-related diseases” (2018) come the findings set out here.

SMILES strings stand for the structures. Calls of active or inactive are those of the source. The calls are words filed in the database; no cut-off is given here.

Experiment [1] addresses T1, Transcription factor SOX-18 (Homo sapiens) (UniProt P35713).
T1 sequence (whole entry): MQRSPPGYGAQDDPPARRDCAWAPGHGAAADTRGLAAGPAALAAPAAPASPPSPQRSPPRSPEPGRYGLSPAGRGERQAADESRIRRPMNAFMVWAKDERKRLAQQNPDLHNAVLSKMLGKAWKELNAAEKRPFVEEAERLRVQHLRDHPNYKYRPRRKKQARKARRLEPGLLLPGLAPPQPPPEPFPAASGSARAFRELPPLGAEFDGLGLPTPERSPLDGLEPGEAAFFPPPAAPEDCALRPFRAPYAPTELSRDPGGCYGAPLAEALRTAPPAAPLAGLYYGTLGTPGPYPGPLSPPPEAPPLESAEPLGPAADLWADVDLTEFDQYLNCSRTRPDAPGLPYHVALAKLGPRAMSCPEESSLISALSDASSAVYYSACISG
Put plainly: Inhibition of SOX18 in HUVEC assessed as reduction of SOX18 transcriptional activity by genome-wide RNA-seq and ChlP-seq analysis.

Experiment [2] addresses T1, Transcription factor SOX-18 (Homo sapiens). Briefly: Inhibition of SOX18 in HUVEC assessed as reduction of SOX18-OCT4 interactions incubated for 45 mins by Alpha-screen assay. For orientation: Bead proximity is the source of the signal in Alpha formats.

As for `O=C(O)c1c(O)cccc1CCc1ccc2ccccc2c1`, the inhibition entry in experiment [1] and in experiment [2] was “Active” throughout.
